Data as given in patent US11549124B2 (priority 2017, dated 2023).

Amino acid sequences for entries named in this document (tags omitted). Residues count along the entry.
UniProt P34752, 24-467: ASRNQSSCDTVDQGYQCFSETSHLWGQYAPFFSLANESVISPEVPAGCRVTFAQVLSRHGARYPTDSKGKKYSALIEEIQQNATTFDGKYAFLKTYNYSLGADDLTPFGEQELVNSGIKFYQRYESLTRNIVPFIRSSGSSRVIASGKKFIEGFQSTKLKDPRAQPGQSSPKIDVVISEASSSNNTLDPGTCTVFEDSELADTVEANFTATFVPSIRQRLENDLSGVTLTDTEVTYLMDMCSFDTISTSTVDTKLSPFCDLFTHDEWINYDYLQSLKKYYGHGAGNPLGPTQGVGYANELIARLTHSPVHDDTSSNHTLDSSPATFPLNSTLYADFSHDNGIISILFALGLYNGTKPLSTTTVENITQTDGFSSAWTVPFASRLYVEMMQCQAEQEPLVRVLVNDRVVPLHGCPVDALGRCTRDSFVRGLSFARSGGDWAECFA

Target: A. ficuum phytase (EC 3.1.3.8) (Aspergillus niger, UniProt P34752)
Conditions: phytase: protease ratio of 1:20

Substance: pepsin
- phytase activity after exposure to protease: unaffected
